The numbers were not newly measured in patent US20090221538A1, “METHODS OF TREATING MULTIPLE SCLEROSIS BY ADMINISTERING PULSE DOSE CALCITRIOL” (priority 2008, published 2009), which cites them from elsewhere.

The test system of this data set is MS. Conditions: cited from earlier work.

B1: interferon-beta-1: FDA-approved, self-injectable MS drug (protein, UniProt P01574 22-187, looked up)
Interferon beta: MSYNLLGFLQRSSNFQCQKLLWQLNGRLEYCLKDRMNFDIPEEIKQLQQFQKEDAALTIYEMLQNIFAIFRQDSSSTGWNETIVENLLANVYHQINHLKTVLEEKLEKEDFTRGKLMSSLHLKRYYGRILHYLKAKEYSHCAWTIVRVEILRNFYFINRLTGYLRN
Take B1: the disability progression entry (RRMS, PPMS or SPMS patients) is on record as “did not slow disability progression”. Moreover, for the setting “some relapsing-remitting MS (RRMS)”, the “reduction of the relapse rate” value is reported as approximately 35%.
